By UniProt entry, the sequences of proteins in these tests, tags left out.
UniProt P61169, whole entry: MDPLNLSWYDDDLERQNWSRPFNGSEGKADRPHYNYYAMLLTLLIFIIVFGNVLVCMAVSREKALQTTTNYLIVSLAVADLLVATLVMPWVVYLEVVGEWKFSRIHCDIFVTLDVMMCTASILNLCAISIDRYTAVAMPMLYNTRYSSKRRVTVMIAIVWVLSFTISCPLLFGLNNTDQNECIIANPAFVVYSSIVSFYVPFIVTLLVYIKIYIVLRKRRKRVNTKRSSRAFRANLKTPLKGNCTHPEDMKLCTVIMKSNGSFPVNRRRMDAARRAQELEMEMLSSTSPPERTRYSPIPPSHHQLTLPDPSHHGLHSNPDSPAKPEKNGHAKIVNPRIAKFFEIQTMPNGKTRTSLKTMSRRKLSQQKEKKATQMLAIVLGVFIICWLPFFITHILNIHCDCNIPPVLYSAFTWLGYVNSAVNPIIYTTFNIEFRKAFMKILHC

In patent US5594024A, “Centrally actig substituted phenylazacycloalkanes” (priority 1995, dated 1997):

Key:
habituated rats = experiment: Locomotor activity and behavior in habituated rats; type: in vivo, rat (male Sprague-Dawley)
D2 receptors = molecular target: T1, D2 receptors (Rattus norvegicus, UniProt P61169); experiment: D2 antagonist binding ([3H]-spiperone), rat striatum; conditions: read-out: in vitro binding IC50, D2 -spip
T1 construct: Preparation of rat striatal membranes for (3H)-spiperone; from tissue; host or cells: rat striatum (striatal membranes)

DA receptor = experiment: DA metabolism (DOPAC, HVA levels) in habituated rats; type: in vivo, rat (male Sprague-Dawley); conditions: for response vs control in vivo at 400 µmol/kg: Rattus norvegicus, po, 1 h

SMILES: N#Cc1cccc([C@@H]2CCCN(CC3CC3)C2)c1 [Compound S-38, S-3-(3-Cyanophenyl-N-cyclopropylmethyl)piperidine]
Behavioral observations (habituated rats; 100 μmol/kg sc): Activation

SMILES: CCCN1CCCC(c2cccc(C#N)c2)C1 (racemic) [(+)-S-34]
Behavioral observations (habituated rats; 100 μmol/kg sc): Activation

SMILES: C=CCN1CCC[C@@H](c2cccc(C#N)c2)C1 [Compound S-37, S-3-(3-Cyanophenyl-N-allyl)piperidine]
Behavioral observations (habituated rats; 100 μmol/kg sc): Activation

SMILES: CN1CCC[C@@H](c2cccc(C#N)c2)C1 [S-(+)-32, S-(+)-3-(3-Cyanophenyl-N-methyl)piperidine]
Behavioral observations (habituated rats; 100 μmol/kg sc): Weak stim.

IC50 (D2 receptors): 550 nM
SMILES: CCCN1CCCC(c2ccccc2OS(=O)(=O)C(F)(F)F)C1 (racemic) [Racemic-19, 3-((2-(Trifluoromethyl)sulfonyl)oxyphenyl-N-n-propyl)piperidine]

SMILES: CCCN1CCC[C@@H](c2cccc(C#N)c2)C1 [S-(-)-34, S-(-)-3-(3-Cyanophenyl-N-n-propyl)piperidine]
efficacy of locomotor stimulation compared with reference compounds (habituated rats): lower than that of d-amphetamine but similar or even somewhat higher than that of the preferential DA autoreceptor antagonists (+)-AJ76 and (+)-UH232; also recorded: lower than that observed after classical stimulants like d-amphetamine and apomorphine but higher than that produced by the preferential dopamine autoreceptor antagonists (+)-UH232 and (+)-AJ76 | locomotor activity in habituated rats (in words) (habituated rats): produced a locomotor stimulation in habituated rats | stereotyped behavior (habituated rats): Stereotyped sniffing and rearing was also observed; also recorded: pronounced activation with weak stereotypies (sniffing and rearing) | Behavioral observations (habituated rats; 25 μmol/kg po): Activation | Behavioral observations (habituated rats; 100 μmol/kg sc): Activation | Behavioral observations (habituated rats; 400 μmol/kg po): Activation | response vs control in vivo at 400 µmol/kg (DA receptor; read-out: DOPAC limbic): 246 ± 10% | response vs control in vivo at 400 µmol/kg (DA receptor; read-out: DOPAC striatum): 259 ± 31% | brain DA metabolism (HVA, DOPAC) (in words) (DA receptor; sc): pronounced and dose-dependent increase in brain DA metabolism

“Also recorded” adds a separate entry of the source. Like-named read-outs stand apart in the source and are kept apart here. Each block holds one molecule with its values, some of them ahead of it.
